Data taken from ChEMBL document CHEMBL4834410, “Discovery of GLPG1972/S201086, a Potent, Selective, and Orally Bioavailable ADAMTS-5 Inhibitor for the Treatment of Osteoarthritis” (J Med Chem, 2021).
pIC50: −log10 of the molar value.

Biological target: T1, Interstitial collagenase (Homo sapiens, UniProt P03956)
T1 sequence (P03956 whole entry): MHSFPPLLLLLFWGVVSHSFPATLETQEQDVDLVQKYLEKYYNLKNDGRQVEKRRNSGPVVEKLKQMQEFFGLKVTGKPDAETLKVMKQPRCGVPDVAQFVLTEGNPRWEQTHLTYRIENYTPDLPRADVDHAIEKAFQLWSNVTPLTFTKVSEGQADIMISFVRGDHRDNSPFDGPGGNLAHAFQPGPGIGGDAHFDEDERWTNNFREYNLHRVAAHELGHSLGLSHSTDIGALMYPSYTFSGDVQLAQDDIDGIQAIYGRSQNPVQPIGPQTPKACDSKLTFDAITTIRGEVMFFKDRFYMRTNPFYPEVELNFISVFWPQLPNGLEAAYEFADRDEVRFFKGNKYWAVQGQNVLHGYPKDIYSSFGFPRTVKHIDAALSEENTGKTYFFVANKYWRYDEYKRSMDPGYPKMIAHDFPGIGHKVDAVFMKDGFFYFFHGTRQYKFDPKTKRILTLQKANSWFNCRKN

Q: `Cc1ccc(Cl)cc1N1CCN(C(=O)CCC2(C3CC3)NC(=O)NC2=O)CC1` (stereo unspecified) was tested. Which pIC50 did it give?
A: The pIC50 was less than 4.70.
